In ChEMBL document CHEMBL1156999, “Synthesis and preliminary pharmacological characterisation of a new class of nitrogen-containing bisphosphonates (N-BPs)” (Bioorg Med Chem, 2010) one finds inhibition data, which are given here for five compounds.

Structures are written as SMILES.

The test system of this experiment is Aorta. Put plainly: Vasodilatory activity in Wistar rat endothelium-intact thoracic aortic strip assessed as inhibition of phenylephrine-induced contraction after 120 mins. To be noted: in the assay text read “endothelium-denuded” for “endothelium-intact”. The format is functional, tissue-based.
For `CN(CCCC(O)(P(=O)(O)O)P(=O)(O)O)Cc1no[n+]([O-])c1C(N)=O`, the inhibition result was “Dose-dependent effect”.
The result for `O=P(O)(O)C(O)(CCCCOc1no[n+]([O-])c1-c1ccccc1)P(=O)(O)O` reads “Dose-dependent effect”.
The entry for `Cc1c(CN(C)CCCC(O)(P(=O)(O)O)P(=O)(O)O)no[n+]1[O-]` is “Dose-dependent effect”; for `O=P(O)(O)C(CCCCOc1no[n+]([O-])c1S(=O)(=O)c1ccccc1)P(=O)(O)O` it is “Dose-dependent effect”; for `O=P(O)(O)C(O)(CCCCOc1no[n+]([O-])c1S(=O)(=O)c1ccccc1)P(=O)(O)O` it is “Dose-dependent effect”.
